Laboratory results: US20040106773A1 (priority 2003, published 2004)
Ends that are not written are not given here.

Chains of the proteins cited; added tags and fusions are not shown. Residues count along the entry.
UniProt P70555, 25-546: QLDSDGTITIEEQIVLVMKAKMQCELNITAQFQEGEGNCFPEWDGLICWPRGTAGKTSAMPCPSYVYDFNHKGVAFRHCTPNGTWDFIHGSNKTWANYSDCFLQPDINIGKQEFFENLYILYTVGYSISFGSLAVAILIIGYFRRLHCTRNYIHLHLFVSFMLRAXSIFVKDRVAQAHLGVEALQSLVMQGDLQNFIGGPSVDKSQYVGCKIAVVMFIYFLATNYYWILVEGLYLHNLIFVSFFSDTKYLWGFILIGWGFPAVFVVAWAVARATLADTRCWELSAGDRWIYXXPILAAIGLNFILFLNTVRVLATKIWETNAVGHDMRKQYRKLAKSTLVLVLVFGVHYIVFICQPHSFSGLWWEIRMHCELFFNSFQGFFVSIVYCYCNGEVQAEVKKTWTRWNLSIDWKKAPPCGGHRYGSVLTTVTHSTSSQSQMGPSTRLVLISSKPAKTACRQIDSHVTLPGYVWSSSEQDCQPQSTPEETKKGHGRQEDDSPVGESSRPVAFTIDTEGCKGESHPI

Legend:
rat PTH2R [1] = target: T1, rat PTH2R (Rattus norvegicus, UniProt P70555); experiment: cAMP SPA assay for PTH2R activation, rat PTH2R; type: cell-based; conditions: HEK293 cells stably expressing rat PTH2R; mean±S.D., n=3-7
T1 construct: V5-His (appears only in the vector name); expressed in transfected cells
Excerpt: HEK293 cells were transfected with rat and human PTH2R and cell lines that stably express the receptors were established and evaluated. One cell line was selected for each rat and human PTH2R and used for all the functional assays. Specifically, HEK293 cells were transfected with pCDNA3.1/V5-His-RatPTH2R plasmid DNA and pCDNA3.1-E/Uni-lacZ-HumanPTH2R plasmid DNA using FuGENE 6 transfection reagent (Roche Molecular Biochemicals). Three days after transfection, cells were put under selection with 800 μg/ml geneticin (G418, Gibco BRL). After three weeks of selection, single colonies were cloned using cloning cylinders. Cloned colonies were scaled up to T25 flasks. More than 10 cell lines for each plasmid were tested for function in the cAMP SPA assay.
HEK293PTH2R cells were seeded in a 96-well poly-D-lysine coated plate at 100,000 cells per well and cultured overnight. After washing with 200 μl of PBS and treating with 100 μl of 300 nM IBMX in assay medium (MEM without phenol red and FBS) at 37° C. for 10 min. The assay medium was then aspirated and the cells were washed with PBS. The cellular of cAMP was measured using cAMP SPA Direct Screening (Amersham/Pharmacia RPA559). Each concentration of ligand was repeated as triplicate.

rat PTH2R [2] = target: rat PTH2R (rat, UniProt P70555 25-546); experiment: cell-based or functional assay

logEC50, cAMP increase (cAMP SPA assay) in HEK293 cells stably expressing rat PTH2R (rat PTH2R [2])	Molecule	logEC50, increase in cAMP (rat PTH2R [1])
–	human PTH(1-34)	−9.3±0.2
–	rat PTH(1-34)	−10.3±0.5
-10.3	AVSEIQLMHNLGKHLASVERMQWLRKKLQDVHNF (peptide, UniProt P04089 32-65, looked up, not fully specified) [rat PTH(1-34)]	–
